# Assay results taken from PubChem BioAssay AID1625 (Sanford-Burnham Center for Chemical Genomics, 2009).
# The entries are a selection whose mix differs from that of the whole data set. Some of these compounds have results that are not shown, active ones among them. Calls of active or inactive are those of the source.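 The calls were made as follows: active = z-score above 3 at 5 µM with at least 500 cells counted in the well; inconclusive = wells under 500 cells, flagged as cytotoxic or low count; inactive = the rest.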
# Test: insulin promoter activators in MIN6 cells, imaging, high-content screening, mouse beta cells (AID 1625)
# Conditions: MIN6 insulin promoter-GFP reporter, at 5 µM, hits give high values
row,Compound,z-score
1,CCN(CC)CC(C)C(C)OC(=O)C(O)(c1ccccc1)c1ccccc1 (stereo not given),inactive: -0.25
2,CC(C)N1C(=O)CC2(CCN(CCOC(=O)C(O)(c3ccccc3)c3ccccc3)CC2)C1=O,inactive: 1.07
3,CCN1CCCC(OC(=O)C2(O)c3ccccc3C=Cc3ccccc32)C1 (stereo not given),inactive: -0.4
4,C=CCN1CCN(CCOC(=O)C(O)(c2ccccc2)c2ccccc2)CC1,inactive: 0.02
5,CN(C)C1CCCC1OC(=O)C(O)(c1ccccc1)c1ccccc1 (stereo not given),inactive: -1.16
6,Cc1ccccc1C(=O)NCC1(N2CCCCC2)CCCCC1,inactive: -0.12
7,COc1cccc(C(=O)NCC2(N3CCCCC3)CCCCC2)c1,inactive: -0.24
8,CN(C)c1cccc(C(=O)NCC2(N(C)C)CCCCC2)c1,inactive: -0.06
9,COc1ccc(Br)c(C(=O)NCC2(N3CCCCC3)CCCCC2)c1,inactive: 1.22
10,O=C(OC1CN2CCC1CC2)C(CO)(c1ccccc1)c1ccccc1 (stereo not given),inactive: -2.74
